Earlier results on one substance are cited in patent US7196201B2 (dated 2007).

Chains of the proteins cited; added tags and fusions are not shown. Lines headed by an entry give the natural chain unless they say otherwise; changes in a name come on top.
UniProt P14740: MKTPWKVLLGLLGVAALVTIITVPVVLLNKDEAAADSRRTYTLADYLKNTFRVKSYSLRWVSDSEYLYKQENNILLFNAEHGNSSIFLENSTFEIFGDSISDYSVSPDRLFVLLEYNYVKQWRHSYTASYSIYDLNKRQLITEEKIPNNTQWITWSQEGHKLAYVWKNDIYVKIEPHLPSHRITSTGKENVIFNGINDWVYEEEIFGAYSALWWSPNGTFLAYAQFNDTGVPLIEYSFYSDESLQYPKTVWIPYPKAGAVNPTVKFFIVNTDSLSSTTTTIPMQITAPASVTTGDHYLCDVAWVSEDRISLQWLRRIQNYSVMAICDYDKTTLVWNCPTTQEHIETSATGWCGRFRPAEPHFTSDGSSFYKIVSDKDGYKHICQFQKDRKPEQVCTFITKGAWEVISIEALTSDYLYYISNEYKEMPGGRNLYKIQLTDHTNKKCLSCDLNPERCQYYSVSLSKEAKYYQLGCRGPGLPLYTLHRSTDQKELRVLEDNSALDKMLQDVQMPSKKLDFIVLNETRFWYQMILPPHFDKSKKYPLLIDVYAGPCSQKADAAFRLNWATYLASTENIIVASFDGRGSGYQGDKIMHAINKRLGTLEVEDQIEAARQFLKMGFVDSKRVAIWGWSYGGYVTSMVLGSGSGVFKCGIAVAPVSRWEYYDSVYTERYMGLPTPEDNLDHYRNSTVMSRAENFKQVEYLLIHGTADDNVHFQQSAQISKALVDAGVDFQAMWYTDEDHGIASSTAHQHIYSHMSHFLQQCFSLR

For the data set, the target named is DPP-IV (Rattus norvegicus, UniProt P14740). The note with it: obese Zucker rats.

NVP-DPP728: the oral glucose tolerance entry is on record as “improves oral glucose tolerance” and the “plasma GLP-1 (2–36 amide) concentrations” value was “increases plasma GLP-1 (2–36 amide) concentrations”.
